Usually IC50 stands for the concentration at which inhibition is half-maximal.

In this assay the target is T1, KDM5A_c1 (M1-L801) (Homo sapiens, UniProt P29375).
T1 construct: made in house
T1 sequence (P29375 1-801): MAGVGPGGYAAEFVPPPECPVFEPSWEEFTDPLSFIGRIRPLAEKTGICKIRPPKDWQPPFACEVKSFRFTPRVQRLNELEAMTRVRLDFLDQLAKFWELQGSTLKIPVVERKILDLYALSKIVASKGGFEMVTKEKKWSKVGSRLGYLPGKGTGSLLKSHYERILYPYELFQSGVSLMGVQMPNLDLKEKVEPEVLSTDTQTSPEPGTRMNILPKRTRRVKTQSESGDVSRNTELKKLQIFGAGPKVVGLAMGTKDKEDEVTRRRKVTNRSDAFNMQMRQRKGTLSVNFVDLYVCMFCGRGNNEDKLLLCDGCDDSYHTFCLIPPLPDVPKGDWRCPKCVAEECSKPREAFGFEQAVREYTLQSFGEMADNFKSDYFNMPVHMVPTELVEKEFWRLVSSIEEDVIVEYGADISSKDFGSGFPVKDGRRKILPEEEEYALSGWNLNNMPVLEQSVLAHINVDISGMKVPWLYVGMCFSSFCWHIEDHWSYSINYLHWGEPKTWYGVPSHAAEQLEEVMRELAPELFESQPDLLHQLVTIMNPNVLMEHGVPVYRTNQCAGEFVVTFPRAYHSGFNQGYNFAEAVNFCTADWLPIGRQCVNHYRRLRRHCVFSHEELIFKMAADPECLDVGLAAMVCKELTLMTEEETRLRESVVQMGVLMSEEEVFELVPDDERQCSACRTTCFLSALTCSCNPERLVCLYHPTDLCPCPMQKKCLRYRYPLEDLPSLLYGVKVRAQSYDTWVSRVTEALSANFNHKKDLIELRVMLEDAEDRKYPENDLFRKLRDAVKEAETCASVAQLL
Nature of the assay: MALDI-TOF MS H3K4me3 demethylation assay, KDM5A_c1. It counts as biochemical. As to conditions: average ± StdDev of n = 2, read-out: IC50, inhibition of H3K4me3 demethylation activity, KDM5A_c1. Here is the method: Two catalytically active constructs of KDM5A were employed, KDM5A_c1 (M1-L801) and KDM5A_c2 (ΔARID/PHD1, P13-S744 with L88-G353 (ARID/PHD1) replaced with a GGGG linker) and both KDM5A_c1 and KDM5A_c2 constructs lack the PHD2 and PHD3. […] A MALDI-TOF MS assay was used to measure the activity of H3K4me3 demethylation in the presence of inhibitors (Table 2, Fig. 3C and D).
The KDM5A mixture (5 µL, KDM5A-c1: 1.0 µM or KDM5A-c2: 0.5 µM) was pre-incubated with 100 nL inhibitors (in DMSO) for 10 min. […] The mixture was quenched using formic acid (5 µL, 1 v/v% in MQ) after 4 minutes (KDM5A-c1) or 3 minutes (KDM5A-c2). The stopped reaction (1 µL) was mixed with […] (CHCA) MALDI matrix (saturated solution in TFA (0.1%) in MilliQ water and trifluoroacetic acid (0.1%) acetonitrile (1:1)) at 1:1 ratio (2 µL), air dried and analysed using Bruker microflex MALDI-TOF controlled with FlexControl. The data were further processed using FlexAnalysis and excel.

For the compound `CCCCc1oc2ccccc2c1C(=O)c1cc(I)c(OCCN(CC)CC)c(I)c1` [AMI, amiodarone, reference compound], the IC50 was greater than 1000 µM.

The record behind these values is publication PMC6380468, “Investigations on small molecule inhibitors targeting the histone H3K4 tri-methyllysine binding PHD-finger of JmjC histone demethylases” (Bioorganic & Medicinal Chemistry, 2018).
